Data published in PMC9133036, “Molecular mechanism of the wake-promoting agent TAK-925” (Nature Communications, 2022).

The chains behind the UniProt entries cited, without tags or fusion partners. Residues count along the entry.
UniProt O43614, whole entry: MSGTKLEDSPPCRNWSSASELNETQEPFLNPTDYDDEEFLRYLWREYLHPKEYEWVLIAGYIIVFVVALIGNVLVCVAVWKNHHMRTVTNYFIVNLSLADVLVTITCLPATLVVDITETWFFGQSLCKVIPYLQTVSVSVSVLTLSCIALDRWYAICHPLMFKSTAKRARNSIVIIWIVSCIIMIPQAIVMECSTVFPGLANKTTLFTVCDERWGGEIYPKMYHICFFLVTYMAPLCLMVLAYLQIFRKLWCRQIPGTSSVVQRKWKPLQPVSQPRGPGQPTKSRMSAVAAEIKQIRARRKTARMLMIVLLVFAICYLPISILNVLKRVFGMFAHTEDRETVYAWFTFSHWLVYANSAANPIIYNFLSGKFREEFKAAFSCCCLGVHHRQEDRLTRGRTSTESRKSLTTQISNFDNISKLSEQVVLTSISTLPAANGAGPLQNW
UniProt O43614, whole entry F227A: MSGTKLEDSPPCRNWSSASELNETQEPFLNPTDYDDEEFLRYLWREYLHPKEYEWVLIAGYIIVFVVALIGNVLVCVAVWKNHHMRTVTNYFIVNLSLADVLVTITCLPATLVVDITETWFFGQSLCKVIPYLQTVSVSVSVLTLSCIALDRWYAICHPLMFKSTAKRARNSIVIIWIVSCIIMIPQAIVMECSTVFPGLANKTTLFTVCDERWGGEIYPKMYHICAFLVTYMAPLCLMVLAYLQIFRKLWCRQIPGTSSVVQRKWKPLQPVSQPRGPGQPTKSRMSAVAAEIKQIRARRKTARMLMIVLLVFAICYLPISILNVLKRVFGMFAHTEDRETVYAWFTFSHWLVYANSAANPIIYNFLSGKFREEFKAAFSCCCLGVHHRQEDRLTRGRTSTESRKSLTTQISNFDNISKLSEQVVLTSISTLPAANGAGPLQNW
UniProt O43614, whole entry F346A: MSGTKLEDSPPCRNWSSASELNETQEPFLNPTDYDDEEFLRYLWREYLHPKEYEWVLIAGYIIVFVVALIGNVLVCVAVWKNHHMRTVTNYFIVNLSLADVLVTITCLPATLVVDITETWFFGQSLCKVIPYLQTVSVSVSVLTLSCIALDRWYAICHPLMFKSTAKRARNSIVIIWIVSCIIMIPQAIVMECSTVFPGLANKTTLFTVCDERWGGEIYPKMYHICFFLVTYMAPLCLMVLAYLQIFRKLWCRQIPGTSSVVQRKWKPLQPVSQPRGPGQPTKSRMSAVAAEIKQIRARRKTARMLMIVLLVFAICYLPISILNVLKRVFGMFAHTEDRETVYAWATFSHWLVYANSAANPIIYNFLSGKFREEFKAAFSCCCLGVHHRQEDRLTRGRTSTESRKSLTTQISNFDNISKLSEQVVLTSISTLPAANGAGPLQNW
UniProt O43614, whole entry H350A: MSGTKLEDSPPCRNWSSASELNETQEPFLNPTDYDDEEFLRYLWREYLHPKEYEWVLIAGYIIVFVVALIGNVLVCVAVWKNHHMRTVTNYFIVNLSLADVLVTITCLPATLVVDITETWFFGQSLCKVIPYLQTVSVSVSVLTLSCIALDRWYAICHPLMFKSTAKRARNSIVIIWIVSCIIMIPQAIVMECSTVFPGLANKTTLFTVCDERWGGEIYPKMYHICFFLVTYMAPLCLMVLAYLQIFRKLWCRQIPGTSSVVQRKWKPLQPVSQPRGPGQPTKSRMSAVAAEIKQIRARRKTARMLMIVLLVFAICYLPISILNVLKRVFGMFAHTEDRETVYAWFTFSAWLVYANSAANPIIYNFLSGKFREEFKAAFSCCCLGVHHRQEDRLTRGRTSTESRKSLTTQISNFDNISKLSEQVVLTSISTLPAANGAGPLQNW
UniProt O43614, whole entry Q187A: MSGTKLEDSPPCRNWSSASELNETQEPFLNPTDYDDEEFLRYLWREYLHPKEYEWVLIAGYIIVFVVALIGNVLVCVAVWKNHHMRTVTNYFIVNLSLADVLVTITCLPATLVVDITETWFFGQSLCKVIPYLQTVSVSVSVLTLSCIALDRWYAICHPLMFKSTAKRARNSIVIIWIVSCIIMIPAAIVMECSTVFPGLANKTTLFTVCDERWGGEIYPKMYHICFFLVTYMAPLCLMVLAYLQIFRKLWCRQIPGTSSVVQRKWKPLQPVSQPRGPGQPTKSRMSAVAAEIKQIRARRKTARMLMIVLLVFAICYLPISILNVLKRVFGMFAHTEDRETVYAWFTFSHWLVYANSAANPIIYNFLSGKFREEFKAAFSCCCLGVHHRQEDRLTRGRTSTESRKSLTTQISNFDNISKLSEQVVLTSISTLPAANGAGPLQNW
UniProt O43614, whole entry Y317A: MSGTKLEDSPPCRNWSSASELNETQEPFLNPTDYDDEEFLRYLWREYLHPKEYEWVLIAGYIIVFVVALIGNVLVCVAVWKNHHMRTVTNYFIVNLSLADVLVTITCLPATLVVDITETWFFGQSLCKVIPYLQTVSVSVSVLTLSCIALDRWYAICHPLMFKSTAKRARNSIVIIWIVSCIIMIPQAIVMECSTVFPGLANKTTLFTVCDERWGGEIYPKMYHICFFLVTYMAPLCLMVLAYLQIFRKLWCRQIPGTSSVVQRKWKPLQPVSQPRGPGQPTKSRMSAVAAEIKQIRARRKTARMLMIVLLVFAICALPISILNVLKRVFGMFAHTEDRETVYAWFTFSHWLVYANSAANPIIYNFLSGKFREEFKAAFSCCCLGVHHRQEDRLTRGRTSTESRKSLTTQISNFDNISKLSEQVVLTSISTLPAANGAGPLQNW
UniProt O43614, whole entry V353A: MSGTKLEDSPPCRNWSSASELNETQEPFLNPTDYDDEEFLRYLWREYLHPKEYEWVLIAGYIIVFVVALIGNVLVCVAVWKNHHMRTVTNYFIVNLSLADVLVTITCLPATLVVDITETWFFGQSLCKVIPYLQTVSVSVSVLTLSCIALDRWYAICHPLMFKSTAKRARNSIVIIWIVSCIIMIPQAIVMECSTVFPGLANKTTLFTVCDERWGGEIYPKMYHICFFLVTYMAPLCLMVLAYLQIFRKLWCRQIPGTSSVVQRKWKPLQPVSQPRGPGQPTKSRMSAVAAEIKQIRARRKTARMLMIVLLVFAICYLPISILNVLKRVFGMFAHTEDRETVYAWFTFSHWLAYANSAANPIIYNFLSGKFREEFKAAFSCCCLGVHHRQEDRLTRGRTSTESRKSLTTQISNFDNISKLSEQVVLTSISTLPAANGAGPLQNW
UniProt O43614, whole entry R328A: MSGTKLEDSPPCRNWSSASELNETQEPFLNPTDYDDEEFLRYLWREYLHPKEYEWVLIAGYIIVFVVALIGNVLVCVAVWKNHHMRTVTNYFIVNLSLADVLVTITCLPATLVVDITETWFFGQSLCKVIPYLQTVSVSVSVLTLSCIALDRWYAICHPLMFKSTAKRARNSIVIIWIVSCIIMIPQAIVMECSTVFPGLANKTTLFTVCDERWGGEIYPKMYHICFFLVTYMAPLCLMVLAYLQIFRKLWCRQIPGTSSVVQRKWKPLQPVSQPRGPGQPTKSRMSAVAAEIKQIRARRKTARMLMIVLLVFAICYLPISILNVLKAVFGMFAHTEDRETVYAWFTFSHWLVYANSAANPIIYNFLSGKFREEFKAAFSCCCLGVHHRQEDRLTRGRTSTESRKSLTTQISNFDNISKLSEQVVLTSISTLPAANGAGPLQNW
UniProt O43614, whole entry Q134A: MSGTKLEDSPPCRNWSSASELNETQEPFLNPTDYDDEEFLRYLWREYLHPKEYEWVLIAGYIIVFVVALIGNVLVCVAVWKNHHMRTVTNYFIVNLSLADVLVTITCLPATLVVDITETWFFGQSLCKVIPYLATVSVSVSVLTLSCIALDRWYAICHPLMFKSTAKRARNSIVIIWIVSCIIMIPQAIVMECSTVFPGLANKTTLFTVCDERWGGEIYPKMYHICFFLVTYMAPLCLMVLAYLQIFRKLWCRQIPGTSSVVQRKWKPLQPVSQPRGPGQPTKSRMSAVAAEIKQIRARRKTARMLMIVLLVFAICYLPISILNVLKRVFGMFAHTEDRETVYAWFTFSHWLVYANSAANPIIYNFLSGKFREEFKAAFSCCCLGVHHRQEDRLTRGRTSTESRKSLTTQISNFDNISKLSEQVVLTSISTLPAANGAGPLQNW
UniProt O43614, 1-406: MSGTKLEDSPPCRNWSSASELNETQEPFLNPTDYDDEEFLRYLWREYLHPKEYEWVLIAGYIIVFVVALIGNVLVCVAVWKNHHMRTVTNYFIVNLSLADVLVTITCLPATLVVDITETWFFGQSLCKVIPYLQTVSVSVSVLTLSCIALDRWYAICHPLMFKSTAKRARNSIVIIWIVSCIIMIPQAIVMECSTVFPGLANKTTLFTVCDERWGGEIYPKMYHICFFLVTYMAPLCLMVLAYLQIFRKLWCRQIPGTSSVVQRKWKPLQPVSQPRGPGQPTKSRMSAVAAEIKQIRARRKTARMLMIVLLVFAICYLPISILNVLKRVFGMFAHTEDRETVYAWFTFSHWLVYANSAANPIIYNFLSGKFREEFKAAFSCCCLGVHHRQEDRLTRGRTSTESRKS
UniProt O43614, whole entry V114A: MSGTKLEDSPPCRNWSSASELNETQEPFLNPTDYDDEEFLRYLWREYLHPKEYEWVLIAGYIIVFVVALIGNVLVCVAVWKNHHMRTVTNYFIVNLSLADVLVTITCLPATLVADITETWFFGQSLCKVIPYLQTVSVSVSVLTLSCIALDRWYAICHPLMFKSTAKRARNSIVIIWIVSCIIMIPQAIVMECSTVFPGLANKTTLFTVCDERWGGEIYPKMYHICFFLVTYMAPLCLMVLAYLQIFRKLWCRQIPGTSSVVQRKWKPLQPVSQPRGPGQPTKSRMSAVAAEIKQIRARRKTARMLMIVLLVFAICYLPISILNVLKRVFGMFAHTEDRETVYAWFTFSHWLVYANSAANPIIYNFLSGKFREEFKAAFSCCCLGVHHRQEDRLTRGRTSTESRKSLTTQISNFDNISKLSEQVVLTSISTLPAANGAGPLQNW
UniProt O43614, whole entry Y232A: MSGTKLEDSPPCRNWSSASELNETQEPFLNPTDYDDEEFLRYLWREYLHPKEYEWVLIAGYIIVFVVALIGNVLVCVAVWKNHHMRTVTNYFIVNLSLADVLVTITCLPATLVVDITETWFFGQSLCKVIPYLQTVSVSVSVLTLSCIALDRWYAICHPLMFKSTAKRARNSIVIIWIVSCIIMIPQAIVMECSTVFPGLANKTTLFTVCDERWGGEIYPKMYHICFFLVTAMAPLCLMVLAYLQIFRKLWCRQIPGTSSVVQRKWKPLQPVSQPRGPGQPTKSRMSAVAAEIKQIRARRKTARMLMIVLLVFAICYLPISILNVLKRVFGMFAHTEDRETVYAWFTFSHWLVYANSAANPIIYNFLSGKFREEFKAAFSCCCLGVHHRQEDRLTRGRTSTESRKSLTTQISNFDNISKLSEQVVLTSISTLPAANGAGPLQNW
UniProt O43614, whole entry Y354A: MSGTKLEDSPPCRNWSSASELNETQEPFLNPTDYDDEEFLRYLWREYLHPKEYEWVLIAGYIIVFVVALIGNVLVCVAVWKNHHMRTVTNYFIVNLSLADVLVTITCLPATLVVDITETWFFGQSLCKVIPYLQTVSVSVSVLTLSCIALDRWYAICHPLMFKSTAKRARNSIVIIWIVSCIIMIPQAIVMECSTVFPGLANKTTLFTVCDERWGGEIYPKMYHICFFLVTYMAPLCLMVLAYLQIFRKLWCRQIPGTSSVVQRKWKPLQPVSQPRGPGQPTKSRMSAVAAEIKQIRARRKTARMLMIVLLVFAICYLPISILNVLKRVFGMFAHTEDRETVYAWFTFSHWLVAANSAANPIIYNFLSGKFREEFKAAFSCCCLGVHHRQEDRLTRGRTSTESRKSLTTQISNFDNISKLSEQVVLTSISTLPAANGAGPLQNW
UniProt O43614, whole entry W120A: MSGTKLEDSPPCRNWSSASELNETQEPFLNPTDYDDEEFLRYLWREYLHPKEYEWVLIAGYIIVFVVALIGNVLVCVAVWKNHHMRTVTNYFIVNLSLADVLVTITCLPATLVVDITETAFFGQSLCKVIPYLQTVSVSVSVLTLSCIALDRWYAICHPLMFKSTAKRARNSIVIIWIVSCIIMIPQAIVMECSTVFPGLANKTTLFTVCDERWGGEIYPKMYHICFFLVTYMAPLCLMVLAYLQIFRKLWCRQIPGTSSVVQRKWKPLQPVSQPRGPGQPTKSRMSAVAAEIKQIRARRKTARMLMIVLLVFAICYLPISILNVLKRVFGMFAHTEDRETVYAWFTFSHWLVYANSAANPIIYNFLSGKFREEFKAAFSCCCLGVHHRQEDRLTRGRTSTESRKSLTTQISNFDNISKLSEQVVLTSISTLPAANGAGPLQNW

Key:
Type in all cases: cell-based
human OX2R wild type [1] = molecular target: T1, human OX2R wild type (Homo sapiens, UniProt O43614); assay: Inositol phosphate accumulation assay for Gq signaling, OX2R WT; design: FLAG; expressed in transfected cells; host or cells: HEK293; conditions: IP accumulation
OX2R F227A = molecular target: T2, OX2R F227A (Homo sapiens, UniProt O43614, F227A); assay: β-arrestin PathHunter assay, OX2R F227A; conditions: β-arrestin recruitment
T2 construct: expressed in transfected cells; host or cells: CHO-K1 stably expressing EA β-arrestin2

OX2R F346A = molecular target: T3, OX2R F346A (Homo sapiens, UniProt O43614, F346A); assay: β-arrestin PathHunter assay, OX2R F346A; conditions: β-arrestin recruitment
T3 construct: expressed in transfected cells; host or cells: CHO-K1 stably expressing EA β-arrestin2

OX2R H350A = molecular target: T4, OX2R H350A (Homo sapiens, UniProt O43614, H350A); assay: β-arrestin PathHunter assay, OX2R H350A; conditions: β-arrestin recruitment
T4 construct: expressed in transfected cells; host or cells: CHO-K1 stably expressing EA β-arrestin2

OX2R Q187A = molecular target: T5, OX2R Q187A (Homo sapiens, UniProt O43614, Q187A); assay: β-arrestin PathHunter assay, OX2R Q187A; conditions: β-arrestin recruitment
T5 construct: expressed in transfected cells; host or cells: CHO-K1 stably expressing EA β-arrestin2

OX2R Y317A = molecular target: T6, OX2R Y317A (Homo sapiens, UniProt O43614, Y317A); assay: β-arrestin PathHunter assay, OX2R Y317A; conditions: β-arrestin recruitment
T6 construct: expressed in transfected cells; host or cells: CHO-K1 stably expressing EA β-arrestin2

OX2R V353A = molecular target: T7, OX2R V353A (Homo sapiens, UniProt O43614, V353A); assay: β-arrestin PathHunter assay, OX2R V353A; conditions: β-arrestin recruitment
T7 construct: expressed in transfected cells; host or cells: CHO-K1 cells stably expressing EA β-arrestin2 (DiscoveRX), transiently transfected with pCMV-ProLink OX2R

OX2R R328A = molecular target: T8, OX2R R328A (Homo sapiens, UniProt O43614, R328A); assay: β-arrestin PathHunter assay, OX2R R328A; conditions: β-arrestin recruitment
T8 construct: expressed in transfected cells; host or cells: CHO-K1 stably expressing EA β-arrestin2

OX2R Q134A = OX2R Q134A (Homo sapiens, UniProt O43614, Q134A); assay: β-arrestin PathHunter assay, OX2R Q134A; design: expressed in transfected cells; host or cells: CHO-K1 stably expressing EA β-arrestin2; conditions: β-arrestin recruitment
OX2R1-406 = molecular target: T9, OX2R1-406 (Homo sapiens, UniProt O43614); assay: IP accumulation assay, C-terminally truncated OX2R1-406
T9 construct: the receptor construct contained residues 1–406 of wild-type human OX2R; expressed in transfected cells; host or cells: HEK293

OX2R V114A = molecular target: T10, OX2R V114A (Homo sapiens, UniProt O43614, V114A); assay: β-arrestin PathHunter assay, OX2R V114A; conditions: β-arrestin recruitment
T10 construct: expressed in transfected cells; host or cells: CHO-K1 stably expressing EA β-arrestin2

OX2R Y232A = molecular target: T11, OX2R Y232A (Homo sapiens, UniProt O43614, Y232A); assay: β-arrestin PathHunter assay, OX2R Y232A; conditions: β-arrestin recruitment
T11 construct: expressed in transfected cells; host or cells: CHO-K1 stably expressing EA β-arrestin2

OX2R Y354A = molecular target: T12, OX2R Y354A (Homo sapiens, UniProt O43614, Y354A); assay: β-arrestin PathHunter assay, OX2R Y354A; conditions: β-arrestin recruitment
T12 construct: expressed in transfected cells; host or cells: CHO-K1 cells stably expressing EA β-arrestin2 (DiscoveRX), transiently transfected with pCMV-ProLink OX2R

OX2R W120A = molecular target: T13, OX2R W120A (Homo sapiens, UniProt O43614, W120A); assay: β-arrestin PathHunter assay, OX2R W120A; conditions: β-arrestin recruitment
T13 construct: expressed in transfected cells; host or cells: CHO-K1 stably expressing EA β-arrestin2

human OX2R wild type [2] = molecular target: T1, human OX2R wild type; assay: β-arrestin PathHunter assay, OX2R WT; design: expressed in transfected cells; host or cells: CHO-K1 stably expressing EA β-arrestin2; conditions: β-arrestin recruitment
OX2R F228A = molecular target: T14, OX2R F228A (Homo sapiens, UniProt O43614, F228A); assay: β-arrestin PathHunter assay, OX2R F228A; conditions: β-arrestin recruitment
T14 construct: expressed in transfected cells; host or cells: CHO-K1 stably expressing EA β-arrestin2

OX2R K327A = molecular target: T15, OX2R K327A (Homo sapiens, UniProt O43614, K327A); assay: β-arrestin PathHunter assay, OX2R K327A; conditions: β-arrestin recruitment
T15 construct: expressed in transfected cells; host or cells: CHO-K1 stably expressing EA β-arrestin2

Substance: orexin B
- EC50 (human OX2R wild type [1]): 6.2 nM
- EC50 (OX2R F227A): > 1000 nM
- pEC50 (OX2R F227A): < 6
- EC50 (OX2R F346A): 140 nM
- EC50 (OX2R H350A): 200 nM
- EC50 (OX2R Q187A): 29 nM
- EC50 (OX2R Y317A): 120 nM
- EC50 (OX2R V353A): 24 nM
- EC50 (OX2R R328A): 590 nM
- EC50 (OX2R Q134A): 280 nM
- EC50 (OX2R1-406): 2.6 nM
- EC50 (OX2R V114A): 150 nM
- EC50 (OX2R Y232A): 79 nM
- EC50 (OX2R Y354A): 58 nM
- EC50 (OX2R W120A): > 1000 nM
- pEC50 (OX2R W120A): < 6
- EC50 (human OX2R wild type [2]): 4.1 nM
- EC50 (OX2R F228A): 13 nM
- EC50 (OX2R K327A): 120 nM
